Experimental findings from BindingDB's records for doi:10.1172/JCI119225 (Cedars-Sinai Research Institute, 1997) are described below.

By UniProt entry, the sequences of proteins in these tests, tags left out. Where a name states a change or a piece, a line headed by the entry shows the natural chain unless it says otherwise.
UniProt P31391: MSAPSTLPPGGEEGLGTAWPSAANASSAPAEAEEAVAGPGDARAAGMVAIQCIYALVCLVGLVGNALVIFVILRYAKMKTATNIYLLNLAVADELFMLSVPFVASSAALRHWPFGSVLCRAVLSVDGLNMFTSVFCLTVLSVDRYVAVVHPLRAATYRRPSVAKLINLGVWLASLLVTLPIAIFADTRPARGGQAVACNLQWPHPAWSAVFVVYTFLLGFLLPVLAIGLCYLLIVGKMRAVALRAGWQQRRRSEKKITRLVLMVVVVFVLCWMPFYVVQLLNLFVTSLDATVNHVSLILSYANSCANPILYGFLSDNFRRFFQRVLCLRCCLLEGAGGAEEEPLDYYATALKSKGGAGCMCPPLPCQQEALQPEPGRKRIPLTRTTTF
UniProt P30874: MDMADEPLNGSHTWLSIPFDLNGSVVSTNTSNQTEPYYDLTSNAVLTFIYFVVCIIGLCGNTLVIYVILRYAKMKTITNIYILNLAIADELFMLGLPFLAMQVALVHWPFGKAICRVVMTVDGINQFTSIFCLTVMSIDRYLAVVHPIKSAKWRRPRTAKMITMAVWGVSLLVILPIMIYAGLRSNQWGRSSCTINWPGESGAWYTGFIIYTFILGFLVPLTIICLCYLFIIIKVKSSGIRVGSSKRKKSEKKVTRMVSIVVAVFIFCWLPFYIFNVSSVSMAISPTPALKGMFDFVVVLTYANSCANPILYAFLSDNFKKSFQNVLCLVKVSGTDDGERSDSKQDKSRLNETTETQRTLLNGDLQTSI

For experiment [1], the target named is Somatostatin receptor type 4 (Homo sapiens, UniProt P31391).
The target of experiment [2] is Somatostatin receptor type 2 (Homo sapiens, UniProt P30874).

Take `C[C@@H](O)[C@@H]1NC(=O)[C@H](CCCCN)NC(=O)[C@@H](Cc2c[nH]c3ccccc23)NC(=O)[C@H](Cc2ccccc2)NC(=O)[C@H](Cc2ccccc2)NC(=O)[C@H](N)CSSC[C@H](C(N)=O)NC(=O)[C@H](Cc2ccccc2)NC1=O`: it took 16.3 nM to reach half-maximal inhibition in experiment [1] (IC50).

On to `CC[C@@H]1NC(=O)[C@H](CCCCN)NC(=O)[C@@H](Cc2c[nH]c3ccccc23)NC(=O)[C@H](Cc2ccc(O)cc2)NC(=O)[C@@H](NC(=O)[C@@H](Cc2ccccc2)NS(=O)(=O)CCN2CCN(CCO)CC2)CSSC[C@@H](C(=O)N[C@H](C(N)=O)[C@@H](C)O)NC1=O` [BIM-23197], for which the values for the IC50 in experiment [2] and in experiment [1] were 0.19 nM and 1000 nM, respectively.
